Here are results for two compounds from US7476650B2, “Enzyme inhibition” (Yale University, priority 1999, dated 2009).

Chains of the proteins cited; added tags and fusions are not shown. Lines headed by an entry give the natural chain unless they say otherwise; changes in a name come on top.
UniProt Q2TBP0: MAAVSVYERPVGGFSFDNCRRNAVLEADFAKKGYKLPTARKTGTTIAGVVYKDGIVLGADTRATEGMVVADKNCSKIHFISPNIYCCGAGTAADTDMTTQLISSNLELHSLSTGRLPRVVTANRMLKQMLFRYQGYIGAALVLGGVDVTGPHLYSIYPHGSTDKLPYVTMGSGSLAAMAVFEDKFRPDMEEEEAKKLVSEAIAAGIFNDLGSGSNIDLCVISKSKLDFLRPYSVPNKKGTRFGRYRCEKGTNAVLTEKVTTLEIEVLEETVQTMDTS

Assay [1] addresses T1, trypsin-like activity of purified bovine erythrocyte 20S proteasome (Bos taurus, UniProt Q2TBP0).
T1 construct: from tissue; host or cells: bovine erythrocytes (red blood cells)
The assay can be described thus: Enzyme kinetic assay, trypsin-like activity (Boc-LRR-AMC). The class given is biochemical. The conditions noted are these: pH 8; Table 4; inhibitor concentration range in parentheses; read-out: kassoc = kobs/[I] Trypsin-like activity.

The target of a further assay is cathepsin B (Homo sapiens, UniProt P07858). The assay can be described thus: Cathepsin B inhibition assay. The conditions noted are these: at concentrations up to 50 μM.

As for `CC(C)C[C@H](NC(=O)[C@H](Cc1ccccc1)NC(=O)c1cnccn1)B(O)O` [reference compound], the kinact/KI in assay [1] is 150 M⁻¹ s⁻¹.
For the compound `CC[C@H](C)[C@H](NC(=O)[C@H]([C@@H](C)CC)N(C)C(C)=O)C(=O)N[C@H](C(=O)N[C@@H](CC(C)C)C(=O)[C@@]1(C)CO1)[C@@H](C)O` [epoxomicin], the “inhibitory activity against cathepsin B” value on cathepsin B is “did not display any inhibitory activity”.
